Laboratory results reported in US20250129135A1, “Multi-Agonist and Use Thereof” (priority 2021, published 2025).

Protein sequences, listed by entry. Tags and fused reporters are not part of them. Residues count along the entry.
UniProt P47871, 26-477: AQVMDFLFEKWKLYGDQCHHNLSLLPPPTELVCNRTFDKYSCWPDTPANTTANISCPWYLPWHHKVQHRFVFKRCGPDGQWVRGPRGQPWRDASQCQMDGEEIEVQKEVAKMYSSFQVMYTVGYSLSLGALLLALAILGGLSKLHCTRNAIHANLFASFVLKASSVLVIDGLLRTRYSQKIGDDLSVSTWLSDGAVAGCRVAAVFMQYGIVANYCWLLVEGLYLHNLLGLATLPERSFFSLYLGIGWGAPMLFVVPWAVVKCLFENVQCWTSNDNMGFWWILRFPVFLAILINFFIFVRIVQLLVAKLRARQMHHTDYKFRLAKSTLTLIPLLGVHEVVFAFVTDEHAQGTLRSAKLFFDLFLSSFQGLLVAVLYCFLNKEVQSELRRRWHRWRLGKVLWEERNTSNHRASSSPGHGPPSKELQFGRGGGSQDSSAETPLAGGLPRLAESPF
UniProt P43220, 24-463: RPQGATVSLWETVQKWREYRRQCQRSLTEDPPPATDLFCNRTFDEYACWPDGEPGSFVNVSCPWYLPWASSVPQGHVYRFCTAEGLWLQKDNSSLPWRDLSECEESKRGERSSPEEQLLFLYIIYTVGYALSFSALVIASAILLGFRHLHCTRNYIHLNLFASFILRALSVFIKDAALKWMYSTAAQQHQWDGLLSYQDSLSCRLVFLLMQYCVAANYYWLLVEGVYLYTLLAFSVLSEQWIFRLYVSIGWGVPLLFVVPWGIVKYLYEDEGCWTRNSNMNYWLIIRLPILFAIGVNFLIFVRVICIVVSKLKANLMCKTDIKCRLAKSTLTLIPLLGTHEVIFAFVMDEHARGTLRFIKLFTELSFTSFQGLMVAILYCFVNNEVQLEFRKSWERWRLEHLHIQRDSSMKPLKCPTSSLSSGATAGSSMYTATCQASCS

Tests used:
Human GIP R = biological target: T1, Human GIP R (Homo sapiens, UniProt P48546); assay: cAMP (HTRF) activity in CHO cells stably overexpressing GIP receptor; type: cell-based; conditions: for Human GIP R Rel. A (Relative Activity): EC50 of human GIP / EC50 of compound
T1 construct: expressed in transfected cells; host or cells: CHO
T1 sequence (P48546 22-466): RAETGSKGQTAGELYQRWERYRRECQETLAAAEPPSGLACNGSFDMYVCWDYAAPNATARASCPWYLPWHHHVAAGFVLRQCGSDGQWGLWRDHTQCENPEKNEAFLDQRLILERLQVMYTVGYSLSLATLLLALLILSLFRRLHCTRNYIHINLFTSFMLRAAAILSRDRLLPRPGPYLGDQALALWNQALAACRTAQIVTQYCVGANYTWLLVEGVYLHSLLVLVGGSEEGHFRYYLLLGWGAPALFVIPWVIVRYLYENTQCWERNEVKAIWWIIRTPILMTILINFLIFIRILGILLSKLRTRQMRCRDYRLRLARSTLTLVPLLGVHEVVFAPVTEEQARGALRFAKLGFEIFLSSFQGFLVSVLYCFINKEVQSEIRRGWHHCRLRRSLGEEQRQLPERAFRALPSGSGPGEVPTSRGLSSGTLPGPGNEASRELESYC
How it was run: (§1)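 Cells in HBSS are exposed to compound for 60 min at room temperature, followed by 60 min with detection reagent. EC50 (nM) is taken from concentration-response curves.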

Human GCG R = biological target: T2, Human GCG R (Homo sapiens, UniProt P47871); assay: cAMP (HTRF) activity in HEK-293 cells stably overexpressing human GCG receptor; type: cell-based; conditions: for Human GCG R Rel. A (Relative Activity): EC50 of human GCG / EC50 of compound
T2 construct: expressed in transfected cells; host or cells: HEK-293
How it was run: as §1

RIN-m5F cells = type: cell-based, rat; conditions: for EC50: cAMP, at least 3 independent tests, read-out: EC50 on RIN-m5F rat pancreatic islet tumor cells; for Rel. A (Relative Activity) on RIN-m5F: relative to GLP-1(7-37)
How it was run: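 After 60 min room-temperature exposure of HBSS-suspended RIN-m5F cells to compound and another 60 min with detection reagent, cellular cAMP level was determined.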

3T3-L1 adipocytes = conditions: for EC50: read-out: EC50 on mouse 3T3-L1 adipocyte, cAMP, at least 3 independent tests; for Rel. A (Relative Activity) on 3T3-L1 adipocyte: relative to GIP
How it was run: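 Compound-induced cAMP was measured in mature 3T3-L1 adipocytes after 60 min room-temperature exposure to a 10-concentration, 3-fold dilution series, followed by 60 min with kit detection reagent and curve fitting. Differentiation used IBMX/dexamethasone/insulin (5 days), insulin with 10 uM rosiglitazone (3 days), then 2–3 days in 10% FBS.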

[1] = test system: human primary liver cells; type: cell-based; conditions: for EC50: cAMP, at least 3 independent tests, read-out: EC50 on human primary liver cells; for Rel. A (Relative Activity) on human primary liver cells: relative to GCG
How it was run: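 cAMP readout after 60 min with detection reagent, following 60 min room-temperature compound incubation. Cells were primary human liver cells thawed at 37° C and resuspended in HBSS.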

Human GLP-1R = Human GLP-1R (Homo sapiens, UniProt P43220); assay: cAMP (HTRF) activity in HEK-293 cells stably overexpressing human GLP-1 receptor; type: cell-based; design: expressed in transfected cells; host or cells: HEK-293; conditions: for Human GLP-1R Rel. A (Relative Activity): EC50 of human GLP-1 (7-37) / EC50 of compound
How it was run: as §1

Row | Structure (SMILES) | EC50 (Human GIP R) [nM] | Human GIP R Rel. A (Relative Activity) (Human GIP R) [%] | EC50 (Human GCG R) [nM] | Human GCG R Rel. A (Relative Activity) (Human GCG R) [%] | EC50 (RIN-m5F cells) [nM] | Rel. A (Relative Activity) on RIN-m5F (RIN-m5F cells) [%] | EC50 (3T3-L1 adipocytes) [nM] | Rel. A (Relative Activity) on 3T3-L1 adipocyte (3T3-L1 adipocytes) [%] | EC50 [1] [nM] | Rel. A (Relative Activity) on human primary liver cells [1] [%] | EC50 (Human GLP-1R) [nM] | Human GLP-1R Rel. A (Relative Activity) (Human GLP-1R) [%]
1 | CC[C@H](C)[C@H](NC(=O)[C@H](Cc1ccccc1)NC(=O)[C@H](C)NC(=O)C(C)(C)NC(=O)[C@H](CCC(N)=O)NC(=O)[C@H](C)NC(=O)[C@H](CCCCNC(=O)COCCOCCNC(=O)COCCOCCNC(=O)CC[C@H](NC(=O)CCCCCCCCCCCCCCCCCCC(=O)O)C(=O)O)NC(=O)[C@H](CCCCN)NC(=O)[C@H](CC(=O)O)NC(=O)[C@H](CC(C)C)NC(=O)[C@](C)(CC(C)C)NC(=O)[C@@H](NC(=O)[C@H](CO)NC(=O)[C@H](Cc1ccc(O)cc1)NC(=O)[C@H](CC(=O)O)NC(=O)[C@H](CO)NC(=O)[C@@H](NC(=O)[C@](C)(Cc1ccccc1F)NC(=O)[C@@H](NC(=O)CNC(=O)[C@H](CCC(N)=O)NC(=O)C(C)(C)NC(=O)[C@@H](N)Cc1ccc(O)cc1)[C@@H](C)O)[C@@H](C)O)[C@@H](C)CC)C(=O)N[C@@H](CCC(=O)O)C(=O)N[C@@H](Cc1ccc(O)cc1)C(=O)N[C@@H](CC(C)C)C(=O)N[C@@H](CC(C)C)C(=O)N[C@@H](CCC(=O)O)C(=O)N[C@H](C(=O)NCC(=O)N1CCC[C@H]1C(=O)N[C@@H](CO)C(=O)N[C@@H](CO)C(=O)NCC(=O)N[C@@H](CCC(N)=O)C(=O)N1CCC[C@H]1C(=O)N1CCC[C@H]1C(=O)N1CCC[C@H]1C(=O)N[C@@H](CO)C(N)=O)[C@@H](C)O [Compound 23] | 0.007 | 2585.71 | 0.025 | 228.00 | 0.134 | 770.15 | 2.45 | 155.12 | 1.24 | 314.30 | 0.005 | 880.00
2 | CC[C@H](C)[C@H](NC(=O)[C@H](Cc1ccccc1)NC(=O)[C@H](C)NC(=O)C(C)(C)NC(=O)[C@H](CCC(N)=O)NC(=O)[C@H](C)NC(=O)[C@H](CCCCNC(=O)COCCOCCNC(=O)COCCOCCNC(=O)CC[C@H](NC(=O)CCCCCCCCCCCCCCCCCCC(=O)O)C(=O)O)NC(=O)[C@H](CCCCN)NC(=O)[C@H](CC(=O)O)NC(=O)[C@H](CC(C)C)NC(=O)[C@](C)(CC(C)C)NC(=O)[C@@H](NC(=O)[C@H](CO)NC(=O)[C@H](Cc1ccc(O)cc1)NC(=O)[C@H](CC(=O)O)NC(=O)[C@H](CO)NC(=O)[C@@H](NC(=O)[C@](C)(Cc1ccccc1)NC(=O)[C@@H](NC(=O)CNC(=O)[C@H](CCC(N)=O)NC(=O)C(C)(C)NC(=O)[C@@H](N)Cc1ccc(O)cc1)[C@@H](C)O)[C@@H](C)O)[C@@H](C)CC)C(=O)N[C@@H](CCC(=O)O)C(=O)N[C@@H](Cc1ccccc1)C(=O)N[C@@H](CC(C)C)C(=O)N[C@@H](CC(C)C)C(=O)N[C@@H](CCC(=O)O)C(=O)N[C@@H](CO)C(=O)N[C@@H](Cc1c[nH]cn1)C(=O)N1CCC[C@H]1C(=O)N[C@@H](CO)C(=O)N[C@@H](CO)C(=O)NCC(=O)N[C@@H](C)C(=O)N1CCC[C@H]1C(=O)N1CCC[C@H]1C(=O)N1CCC[C@H]1C(=O)N[C@@H](CO)C(N)=O [Compound 26] | 0.007 | 2585.71 | – | 43.85 | 0.401 | 257.36 | 1.81 | 210.29 | 2.62 | 148.45 | 0.022 | 200.00
3 | CC[C@H](C)[C@H](NC(=O)[C@H](Cc1ccccc1)NC(=O)[C@H](C)NC(=O)C(C)(C)NC(=O)[C@H](CCC(N)=O)NC(=O)[C@H](C)NC(=O)[C@H](CCCCNC(=O)COCCOCCNC(=O)COCCOCCNC(=O)CC[C@H](NC(=O)CCCCCCCCCCCCCCCCCCC(=O)O)C(=O)O)NC(=O)[C@H](CCCCN)NC(=O)[C@H](CC(=O)O)NC(=O)[C@H](CC(C)C)NC(=O)[C@](C)(Cc1ccccc1)NC(=O)[C@@H](NC(=O)[C@H](CO)NC(=O)[C@H](Cc1ccc(O)cc1)NC(=O)[C@H](CC(=O)O)NC(=O)[C@H](CO)NC(=O)[C@@H](NC(=O)[C@](C)(Cc1ccccc1)NC(=O)[C@@H](NC(=O)CNC(=O)[C@H](CCC(N)=O)NC(=O)C(C)(C)NC(=O)[C@@H](N)Cc1ccc(O)cc1)[C@@H](C)O)[C@@H](C)O)[C@@H](C)CC)C(=O)N[C@@H](CCC(=O)O)C(=O)N[C@@H](Cc1ccc(O)cc1)C(=O)N[C@@H](CC(C)C)C(=O)N[C@@H](CC(C)C)C(=O)N[C@@H](CCC(=O)O)C(=O)N[C@@H](CO)C(=O)N[C@@H](Cc1c[nH]cn1)C(=O)N1CCC[C@H]1C(=O)N[C@@H](CO)C(=O)N[C@@H](CO)C(=O)NCC(=O)N[C@@H](C)C(=O)N1CCC[C@H]1C(=O)N1CCC[C@H]1C(=O)N1CCC[C@H]1C(=O)N[C@@H](CO)C(N)=O [Compound 27] | 0.023 | 786.96 | – | 96.61 | 0.252 | 409.52 | 6.52 | 58.28 | 9.72 | 40.03 | 0.016 | 275.00
4 | CC[C@H](C)[C@H](NC(=O)[C@H](Cc1ccccc1)NC(=O)[C@H](C)NC(=O)C(C)(C)NC(=O)[C@H](CCC(N)=O)NC(=O)[C@H](C)NC(=O)[C@H](CCCCNC(=O)COCCOCCNC(=O)COCCOCCNC(=O)CC[C@H](NC(=O)CCCCCCCCCCCCCCCCCCC(=O)O)C(=O)O)NC(=O)[C@H](CCCCN)NC(=O)[C@H](CC(=O)O)NC(=O)[C@H](CC(C)C)NC(=O)[C@](C)(CC(C)C)NC(=O)[C@@H](NC(=O)[C@H](CO)NC(=O)[C@H](Cc1ccc(O)cc1)NC(=O)[C@H](CC(=O)O)NC(=O)[C@H](CO)NC(=O)[C@@H](NC(=O)[C@](C)(Cc1ccccc1F)NC(=O)[C@@H](NC(=O)CNC(=O)[C@H](CCC(N)=O)NC(=O)C(C)(C)NC(=O)[C@@H](N)Cc1ccc(O)cc1)[C@@H](C)O)[C@@H](C)O)[C@@H](C)CC)C(=O)N[C@@H](CCC(=O)O)C(=O)N[C@@H](Cc1ccccc1)C(=O)N[C@@H](CC(C)C)C(=O)N[C@@H](CC(C)C)C(=O)N[C@@H](CCC(=O)O)C(=O)NC(C)(C)C(=O)N[C@@H](Cc1c[nH]cn1)C(=O)N1CCC[C@H]1C(=O)N[C@@H](CO)C(=O)N[C@@H](CO)C(=O)NCC(=O)N[C@@H](C)C(=O)N1CCC[C@H]1C(=O)N1CCC[C@H]1C(=O)NC1(C(=O)N[C@@H](CO)C(N)=O)CC1 [Compound 31] | – | 2011.11 | – | 211.11 | 0.274 | 376.64 | 0.677 | 561.60 | 0.454 | 857.05 | 0.012 | 366.67
5 | CC[C@H](C)[C@H](NC(=O)[C@H](Cc1ccccc1)NC(=O)[C@H](C)NC(=O)C(C)(C)NC(=O)[C@H](CCC(N)=O)NC(=O)[C@H](C)NC(=O)[C@H](CCCCNC(=O)COCCOCCNC(=O)COCCOCCNC(=O)CC[C@H](NC(=O)CCCCCCCCCCCCCCCCCCC(=O)O)C(=O)O)NC(=O)[C@H](CCCCN)NC(=O)[C@H](CC(=O)O)NC(=O)[C@H](CC(C)C)NC(=O)[C@H](Cc1ccccc1)NC(=O)[C@@H](NC(=O)[C@H](CO)NC(=O)[C@H](Cc1ccc(O)cc1)NC(=O)[C@H](CC(=O)O)NC(=O)[C@H](CO)NC(=O)[C@@H](NC(=O)[C@](C)(Cc1ccccc1F)NC(=O)[C@@H](NC(=O)CNC(=O)[C@H](CCC(N)=O)NC(=O)C(C)(C)NC(=O)[C@@H](N)Cc1ccc(O)cc1)[C@@H](C)O)[C@@H](C)O)[C@@H](C)CC)C(=O)N[C@@H](CCC(=O)O)C(=O)N[C@@H](Cc1ccc(O)cc1)C(=O)N[C@@H](CC(C)C)C(=O)N[C@@H](CC(C)C)C(=O)N[C@@H](CCC(=O)O)C(=O)NC(C)(C)C(=O)N[C@@H](Cc1c[nH]cn1)C(=O)N1CCC[C@H]1C(=O)N[C@@H](CO)C(=O)N[C@@H](CO)C(=O)NCC(=O)N[C@@H](C)C(=O)N1CCC[C@H]1C(=O)N1CCC[C@H]1C(=O)NC1(C(=O)N[C@@H](CO)C(N)=O)CC1 [Compound 32] | 0.011 | 1645.45 | 0.017 | 335.29 | 0.208 | 496.15 | 1.11 | 343.76 | 0.58 | 670.86 | 0.014 | 314.29
